Here are results for one compound from patent US20120129834A1, “SEROTONIN RECEPTOR ANTAGONISTS FOR USE IN THE TREATMENT OF HUNTINGTON'S DISEASE” (BUCK INSTITUTE FOR RESEARCH ON AGING, priority 2010, published 2012).

One assay has as its system caspase-3/7. Briefly: caspase activation assay, STHdh111Q/111Q serum deprivation model. The format is cell-based. The following applies: dose/response, FIG. 17 lower panel, n=3/dose.
In another assay the test system is striatal area. Briefly: striatal area in brain sections of treated mice. The format is in vivo, mouse. Particulars: 7.5 mg/kg vs 0.9% saline and ntg, FIG. 22.

The structures appear in SMILES notation. “Also recorded” adds a separate entry of the source.

Consider `CN1CCC(=C2c3ccccc3CCc3sccc32)CC1` [Pizotifen, 4-(1-methyl-4-piperidylidine)-9,10-dihydro-4H-benzo-[4,5]cyclohepta[1,2]-thiophene], for which the caspase-3/7 activation result with caspase-3/7 was “rescue”. In addition, in the assay on striatal area, the striatal area result was “effective to preserve striatal area; also recorded: striatal area is preserved”.
